# In ChEMBL document CHEMBL4837243, “Discovery of TDI-10229: A Potent and Orally Bioavailable Inhibitor of Soluble Adenylyl Cyclase (sAC, ADCY10)” (ACS Med Chem Lett, 2021):
# Chains of the proteins cited; added tags and fusions are not shown. Lines headed by an entry give the natural chain unless they say otherwise; changes in a name come on top.
# UniProt Q96PN6: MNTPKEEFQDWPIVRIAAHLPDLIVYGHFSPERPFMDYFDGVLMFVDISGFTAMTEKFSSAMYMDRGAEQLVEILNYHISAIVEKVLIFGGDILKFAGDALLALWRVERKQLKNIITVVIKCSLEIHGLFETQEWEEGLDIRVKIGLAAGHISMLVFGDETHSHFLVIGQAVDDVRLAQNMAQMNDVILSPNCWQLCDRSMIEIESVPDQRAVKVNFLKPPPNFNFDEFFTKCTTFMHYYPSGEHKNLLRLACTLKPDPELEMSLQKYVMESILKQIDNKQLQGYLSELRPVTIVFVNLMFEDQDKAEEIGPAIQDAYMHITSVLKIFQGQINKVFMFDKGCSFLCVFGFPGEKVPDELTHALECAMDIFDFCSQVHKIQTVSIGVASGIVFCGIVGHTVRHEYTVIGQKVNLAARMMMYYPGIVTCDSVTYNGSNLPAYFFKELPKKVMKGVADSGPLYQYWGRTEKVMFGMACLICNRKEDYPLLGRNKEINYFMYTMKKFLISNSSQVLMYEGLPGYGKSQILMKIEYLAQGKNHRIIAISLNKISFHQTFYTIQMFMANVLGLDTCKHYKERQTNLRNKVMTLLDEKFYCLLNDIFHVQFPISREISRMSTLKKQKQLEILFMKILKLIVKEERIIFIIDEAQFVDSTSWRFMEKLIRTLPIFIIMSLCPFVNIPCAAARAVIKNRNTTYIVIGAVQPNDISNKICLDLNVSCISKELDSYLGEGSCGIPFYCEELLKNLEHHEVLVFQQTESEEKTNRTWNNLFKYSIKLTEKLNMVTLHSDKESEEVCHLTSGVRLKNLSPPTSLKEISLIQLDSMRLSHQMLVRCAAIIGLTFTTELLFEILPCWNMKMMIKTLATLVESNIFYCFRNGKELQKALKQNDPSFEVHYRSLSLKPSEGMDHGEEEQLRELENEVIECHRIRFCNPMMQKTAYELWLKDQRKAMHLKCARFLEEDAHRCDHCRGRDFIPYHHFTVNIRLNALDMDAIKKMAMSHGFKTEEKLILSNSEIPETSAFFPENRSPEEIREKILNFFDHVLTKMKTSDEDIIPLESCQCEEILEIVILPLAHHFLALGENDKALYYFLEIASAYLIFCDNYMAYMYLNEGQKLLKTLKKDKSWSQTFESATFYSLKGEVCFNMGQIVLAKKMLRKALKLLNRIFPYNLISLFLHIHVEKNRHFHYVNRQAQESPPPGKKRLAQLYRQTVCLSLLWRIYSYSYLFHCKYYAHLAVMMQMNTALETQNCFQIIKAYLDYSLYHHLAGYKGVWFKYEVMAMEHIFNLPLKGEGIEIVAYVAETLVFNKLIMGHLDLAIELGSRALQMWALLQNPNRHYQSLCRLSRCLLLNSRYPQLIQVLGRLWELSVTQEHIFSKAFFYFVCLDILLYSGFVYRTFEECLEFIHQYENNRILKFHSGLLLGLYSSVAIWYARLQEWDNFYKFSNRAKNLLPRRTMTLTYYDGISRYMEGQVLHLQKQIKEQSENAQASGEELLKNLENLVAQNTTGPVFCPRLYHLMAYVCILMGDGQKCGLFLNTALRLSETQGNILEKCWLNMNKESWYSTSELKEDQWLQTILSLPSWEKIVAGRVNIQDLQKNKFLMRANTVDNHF
# Target: Adenylate cyclase type 10 (Homo sapiens, UniProt Q96PN6)
row,IC50,Compound
1,351 nM,COc1cccc(Cc2cn(C)nc2-c2cc(Cl)nc(N)n2)c1
2,> 10000 nM,Cc1c(Cc2ncccn2)c(-c2cc(Cl)nc(N)n2)nn1C
3,989 nM,Cn1cc(Cc2ccccc2)c(-c2cc(Cl)nc(N)n2)n1
